Columns and labels:
HER3 His tag [1] = molecular target: HER3 His tag (UniProt P21860); assay: ELISA; details: bispecific antibody
[2] = molecular target: HER3 tag free antigen (immobilized) (UniProt P21860); assay: ELISA; dual-binding sandwich: immobilized HER3-Fc + EGFR-His; details: bispecific antibody
HER3 His tag [3] = molecular target: HER3 His tag (UniProt P21860); assay: direct ELISA, His-tagged antigen coated, anti-human Fc-HRP detection

| Substance | EC50 (HER3 His tag [1]) | EC50 [2] | EC50 (HER3 His tag [3]) |
| --- | --- | --- | --- |
| Patri-Cetu-Fc | 0.0197 nM | 2 nM |  |
| Patri-Cetu-Fc (bispecific antibody; other documents disagree on this pair) |  |  | 0.19 nM |

From patent publication US20250282892A1
